Patent US20100323955A1, “METHODS FOR TREATING OBESITY AND OBESITY RELATED DISEASES AND DISORDERS” (AMYLIN PHARMACEUTICALS, INC., priority 2007, published 2010)

Assay: Example 7: amylin and PYY(3-36) in DIO rats, body weight and body composition
Type: in vivo, rat
Procedure: PYY(3-36) was administered by mini-pump at a range of doses (100, 200, 400, 800, 1000 μg/kg/day). Amylin 100 μg/kg/day (dissolved in 50% DMSO sterile water), PYY(3-36) (dissolved in 50% DMSO sterile water) or vehicle was administered by mini-pump. Food intake and body weight was recorded daily. Body composition was measured prior to and after drug treatment using NMR (Echo Medical Systems, Houston, Tex.). For body composition measurements, rats were briefly placed (˜1 min) in a well-ventilated plexiglass tube that was then inserted into a specialized rodent NMR machine. Rats were scanned prior to pump implantation and on the final day of the experiment. This enabled the calculation of changes in actual grams of fat and dry lean tissue (e.g., grams of body fat after treatment−grams of body fat at baseline=change in grams of body fat) and changes in % body composition for fat and dry lean tissue (e.g., % body fat after treatment−% body fat at baseline=change in % body fat).

PYY(3-36)
changes in body fat (fat mass loss) (after two weeks, FIG. 16B): Increasing amount of fat mass loss | vehicle-corrected decrease in percent body weight (two weeks, PYY(3-36) 1000 μg/kg/day, amylin 100 μg/kg/day, mini-pump, FIG. 16A): ~9%
